Experimental data taken from patent US20230255970A1, “COMPOSITIONS AND METHODS FOR TREATING PROLIFERATIVE DISEASES” (The Broad Institute, Inc., priority 2020, published 2023).

Tested on: PPARG
Test: PPARG reporter gene assay (FABP4-NanoLuc, RT112/84 bladder cancer cell line)
Type: cell-based
Details: absence or presence of Rosiglitazone
Method: These NanoLuc gene cloned RT112/84 cells were plated in 384-well plates at ˜10,000 cells/well. Cells were dosed with indicated compounds in the absence or presence of EC50 of PPARG agonist, rosiglitazone, using an HP D300 digital dispenser. The following day nuclei were counted for normalization (IncuCyte S3, Essen Bioscience) and the reporter activity was evaluated using the NanoGlo Luciferase Assay System (Promega). Normalized data is reported as NanoGlo arbitrary light units divided by cell number. PPARG agonist, rosiglitazone, and inhibitor, T0070907, were obtained from Tocris and included as controls.

CC(C)(C)n1nc(-c2ccc(Cl)cc2)c2c(N)ncnc21 [BRD-K95785537, 1-(tert-butyl)-3-(4-chlorophenyl)-1H-pyrazolo[3,4-d]pyrimidin-4-amine]
PPARG reporter activity (listed as A11): active in the PPARG reporter assay | PPARG reporter activity (listed as PP2): reporter activation
